ChEMBL document CHEMBL5724796, “Tm Shift (DSF) assay results for EUbOPEN Chemogenomics Library” (2024)
This list holds what a sample rich in lowest values left over.

Biological target: T1, Transcription intermediary factor 1-alpha (Homo sapiens) (UniProt O15164)
T1 sequence (whole entry): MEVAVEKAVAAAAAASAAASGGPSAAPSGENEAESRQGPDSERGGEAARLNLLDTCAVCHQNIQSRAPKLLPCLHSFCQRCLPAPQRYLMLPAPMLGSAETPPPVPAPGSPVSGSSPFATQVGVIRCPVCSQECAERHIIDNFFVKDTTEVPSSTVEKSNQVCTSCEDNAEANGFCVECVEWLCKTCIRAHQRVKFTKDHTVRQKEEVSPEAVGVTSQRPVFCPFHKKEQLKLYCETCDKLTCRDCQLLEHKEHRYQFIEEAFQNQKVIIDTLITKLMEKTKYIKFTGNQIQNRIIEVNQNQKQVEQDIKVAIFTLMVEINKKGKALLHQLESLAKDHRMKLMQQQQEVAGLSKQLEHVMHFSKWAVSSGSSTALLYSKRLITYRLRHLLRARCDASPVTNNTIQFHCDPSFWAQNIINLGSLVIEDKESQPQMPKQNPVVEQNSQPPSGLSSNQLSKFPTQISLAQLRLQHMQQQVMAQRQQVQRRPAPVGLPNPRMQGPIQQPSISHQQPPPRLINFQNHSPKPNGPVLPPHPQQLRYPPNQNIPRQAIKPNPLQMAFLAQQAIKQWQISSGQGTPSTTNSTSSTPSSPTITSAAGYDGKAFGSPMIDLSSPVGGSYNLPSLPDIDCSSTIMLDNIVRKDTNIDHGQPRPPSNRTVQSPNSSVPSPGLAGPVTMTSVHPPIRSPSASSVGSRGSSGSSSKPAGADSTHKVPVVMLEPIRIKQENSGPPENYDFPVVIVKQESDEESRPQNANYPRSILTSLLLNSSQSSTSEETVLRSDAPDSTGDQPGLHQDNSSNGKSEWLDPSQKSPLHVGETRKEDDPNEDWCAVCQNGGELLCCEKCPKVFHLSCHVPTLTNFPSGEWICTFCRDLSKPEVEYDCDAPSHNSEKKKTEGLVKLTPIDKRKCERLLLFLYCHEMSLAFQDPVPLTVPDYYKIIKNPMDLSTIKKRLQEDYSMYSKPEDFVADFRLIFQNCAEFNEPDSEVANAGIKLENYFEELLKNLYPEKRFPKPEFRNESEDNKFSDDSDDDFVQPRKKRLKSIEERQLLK
Details: Compound concentration 20.0 uM

## C[C@]12CC[C@@H]3c4ccc(O)cc4C[C@@H](CCCCCCCCC[S+]([O-])CCCC(F)(F)C(F)(F)F)[C@H]3[C@@H]1CC[C@@H]2O (stereo partly specified)
  ΔTm: 1.64 °C
